Source: BindingDB's records for doi:10.1021/jm00128a043 (Wellcome Research Laboratories, 1989)
pKi: −log10 of the molar value.

Tested on: Escherichia coli (whole organism, antibacterial activity)
Experiment: Antibacterial activity against Escherichia coli

Structure (SMILES)	pKi
C=CCc1cc(Cc2cnc(N)nc2N)cc(OC)c1O	9.10
C=CCc1cc(Cc2cnc(N)nc2N)cc(OC)c1OC	8.74
CCCc1cc(Cc2cnc(N)nc2N)cc(OC)c1OC	9.40
